Test results published in ChEMBL document CHEMBL5126593, “Design, Synthesis, and Biological Evaluation of a Novel Series of 4-Guanidinobenzoate Derivatives as Enteropeptidase Inhibitors with Low Systemic Exposure for the Treatment of Obesity” (J Med Chem, 2022).

Chains of the proteins cited; added tags and fusions are not shown. Lines headed by an entry give the natural chain unless they say otherwise; changes in a name come on top.
UniProt P98073: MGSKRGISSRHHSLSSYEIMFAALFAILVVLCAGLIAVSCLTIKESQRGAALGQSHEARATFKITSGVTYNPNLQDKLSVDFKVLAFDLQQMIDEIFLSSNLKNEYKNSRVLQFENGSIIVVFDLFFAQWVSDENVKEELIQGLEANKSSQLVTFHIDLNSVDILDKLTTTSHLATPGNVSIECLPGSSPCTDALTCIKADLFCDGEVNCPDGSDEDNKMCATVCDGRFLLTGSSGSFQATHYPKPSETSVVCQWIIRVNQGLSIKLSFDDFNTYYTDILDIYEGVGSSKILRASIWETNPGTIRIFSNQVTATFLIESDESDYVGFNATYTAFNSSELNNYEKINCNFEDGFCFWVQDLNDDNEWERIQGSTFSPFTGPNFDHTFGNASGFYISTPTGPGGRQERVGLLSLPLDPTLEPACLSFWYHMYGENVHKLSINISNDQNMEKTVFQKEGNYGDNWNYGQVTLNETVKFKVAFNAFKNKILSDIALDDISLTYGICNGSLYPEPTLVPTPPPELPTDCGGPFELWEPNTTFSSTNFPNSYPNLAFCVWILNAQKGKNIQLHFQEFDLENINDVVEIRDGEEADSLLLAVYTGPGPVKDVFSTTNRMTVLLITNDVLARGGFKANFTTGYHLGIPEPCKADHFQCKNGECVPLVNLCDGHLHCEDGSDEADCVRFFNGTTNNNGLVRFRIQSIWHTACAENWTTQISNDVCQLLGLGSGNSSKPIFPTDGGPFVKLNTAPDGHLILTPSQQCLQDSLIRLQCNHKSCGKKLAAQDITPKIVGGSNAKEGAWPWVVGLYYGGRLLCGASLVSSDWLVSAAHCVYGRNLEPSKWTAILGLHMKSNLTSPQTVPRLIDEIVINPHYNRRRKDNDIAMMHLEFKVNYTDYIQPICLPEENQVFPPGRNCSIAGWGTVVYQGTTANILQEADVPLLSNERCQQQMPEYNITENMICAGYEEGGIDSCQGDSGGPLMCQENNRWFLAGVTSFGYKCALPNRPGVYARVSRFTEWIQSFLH

Molecular target: Enteropeptidase (Homo sapiens) (UniProt P98073)
Assay: Inhibition of human recombinant Enteropeptidase assessed as inhibition based on initial velocity using 5FAM-Abu-Gly-Asp -Asp-Asp -Lys-Ile-Val-Gly-Gly-Lys-(CPQ2)-Lys-Lys-NH2 as substrate by fluorescence based plate reader method
Conditions: TDE = time-dependent effect
How it was run: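 Human recombinant enzyme prepared as a 24 mU/mL solution in 50 mM tricine pH 8.0, 0.01% Tween 20, 10 mM CaCl2. Compound in DMSO/buffer mixed with 2.1 μM substrate solution; enzyme added to start the reaction at room temperature. Fluorescence (ex 485/em 535 nm) read at 6 min. Inhibition taken relative to no-compound and no-enzyme controls. IC50 with 95% CI.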

inhibition: Tde
Compound: Cc1cc(OC(=O)c2ccc(NC(=N)N)cc2)no1
